## Yeast mating assay 1: variants of the scFv Ab-14

Source: Engelhart et al. 2022 (doi:10.1038/s41597-022-01779-4), MIT Lincoln Laboratory and A-Alpha Bio; data file from the FLAb repository.

All variants were tested on one target, the spike HR2 peptide PDVDLGDISGINAS (SARS-CoV-2).

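The parent was found by panning a naive human phage display library on the peptide. AAYL49 was designed without a model: most single CDR substitutions and a random sample of double and triple ones. The assay is AlphaSeq: two haploid yeast populations carry antibody and antigen on their surface. Mating (16 h, 30 °C) was followed by selection of diploids and sequencing of their barcodes. Read counts were normalised to the haploid input and turned into Kd by a linear fit to BCL2-family pairs of known affinity, for each replicate. The assay was run in three technical replicates.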

Parent: Ab-14, a human scFv built as VH, a (GGGGS)3 linker, VL. Only the CDRs of the heavy chain vary.
VH: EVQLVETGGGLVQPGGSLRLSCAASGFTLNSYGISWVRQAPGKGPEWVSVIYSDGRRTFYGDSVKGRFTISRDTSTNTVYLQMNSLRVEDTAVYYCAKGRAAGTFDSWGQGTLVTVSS
VL: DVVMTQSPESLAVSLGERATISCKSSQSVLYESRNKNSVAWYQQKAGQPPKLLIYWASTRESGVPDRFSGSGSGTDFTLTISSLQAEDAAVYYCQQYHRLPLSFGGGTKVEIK

Each variant's VH is given in full.
This list gathers variants with a substitution at Y60 (VH, numbered from residue 1).
The Kd shown is the geometric mean over detected replicates; a lower Kd is a better binder.
Where no diploid with the target was found in any replicate, the entry reads "nd": below detection, most likely a poor binder, though not proof of it.
For reference, the parent read 4.4 nM as the reference entry and 13 µM (one replicate of three) as a member of this library.
Background: pairings of library AAYL49 with three empty control strains gave a value in 15% of cases (median 11 µM, 5th percentile 680 nM). Values in that range, when seen in few replicates, are hard to tell from nonspecific mating.

For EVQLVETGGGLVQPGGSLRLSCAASGFTLNSYGISWVRQAPGKGPEWVSVIYSDMRRSFLGDSVKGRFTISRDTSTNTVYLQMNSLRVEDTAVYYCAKGRAAGTFDSWGQGTLVTVSS, the assay gave 2.0 µM (3 of 3 replicates).
For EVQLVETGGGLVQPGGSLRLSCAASGFTLNSYGISWVRQAPGKGPEWVSVIYSDGRRTFLADSVKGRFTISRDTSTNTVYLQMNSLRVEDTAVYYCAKGRAAGTFKSWGQGTLVTVSS, the assay gave 1.2 µM (3 of 3 replicates).
For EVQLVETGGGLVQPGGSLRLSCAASGFTLNSYGISWVRQAPGKGPEWVSVIYSDGRRTFQGDSTIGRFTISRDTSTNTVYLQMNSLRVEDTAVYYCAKGRAAGTFDSWGQGTLVTVSS, the assay gave nd (0 of 3 replicates).
For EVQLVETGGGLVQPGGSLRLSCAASGFTLNSYGIKWVRQAPGKGPEWVSVIYSDGRRTFSGDSVKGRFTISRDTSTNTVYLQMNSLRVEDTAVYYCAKGRAAGTFCSWGQGTLVTVSS, the assay gave nd (0 of 3 replicates).
For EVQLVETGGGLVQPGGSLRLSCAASGFTLNSYGISWVRQAPGKGPEWVSVIYSDSRRTFGGDSLKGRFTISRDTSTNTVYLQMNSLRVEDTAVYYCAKGRAAGTFDSWGQGTLVTVSS, the assay gave 7.5 µM (1 of 3 replicates).
For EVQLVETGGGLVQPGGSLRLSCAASGFDLNSYGISWVRQAPGKGPEWVSVIYSDGRRTFEGDSVLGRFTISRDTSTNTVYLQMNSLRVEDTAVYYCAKGRAAGTFDSWGQGTLVTVSS, the assay gave nd (0 of 3 replicates).
For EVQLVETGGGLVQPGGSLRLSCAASGFTLNSYGISWVRQAPGKGPEWVSVIYSDGRRDFFGDSVKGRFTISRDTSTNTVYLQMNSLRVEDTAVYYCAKGRAAGTFDSWGQGTLVTVSS, the assay gave 59 µM (2 of 3 replicates).
For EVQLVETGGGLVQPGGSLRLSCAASGFTLNSYCISWVRQAPGKGPEWVSVIYSCGRRTFCGDSVKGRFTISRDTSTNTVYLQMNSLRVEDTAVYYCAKGRAAGTFDSWGQGTLVTVSS, the assay gave nd (0 of 3 replicates).
For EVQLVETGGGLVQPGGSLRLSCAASGESLNSYGISWVRQAPGKGPEWVSVIYSDGRRTFTGDSVKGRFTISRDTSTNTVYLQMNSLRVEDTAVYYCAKGRAAGTFDSWGQGTLVTVSS, the assay gave 4.9 µM (1 of 3 replicates).
For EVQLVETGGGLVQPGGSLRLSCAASGFTLVSYGISWVRQAPGKGPEWVSVIYSDGRRNFGGDSVKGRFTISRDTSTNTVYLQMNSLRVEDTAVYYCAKGRAAGTFDSWGQGTLVTVSS, the assay gave nd (0 of 3 replicates).
For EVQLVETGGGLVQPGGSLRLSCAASGFTLNSYGISWVRQAPGKGPEWVSVIYSDGRRTCFGDSNKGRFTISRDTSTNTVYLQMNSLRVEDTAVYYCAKGRAAGTFDSWGQGTLVTVSS, the assay gave nd (0 of 3 replicates).
For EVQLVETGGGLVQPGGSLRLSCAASGFTVNSYGISWVRQAPGKGPEWVSVIYSDGRRTFHGDSSKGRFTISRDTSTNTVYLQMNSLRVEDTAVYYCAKGRAAGTFDSWGQGTLVTVSS, the assay gave nd (0 of 3 replicates).
For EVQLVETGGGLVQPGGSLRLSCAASGFTLNSYGISWVRQAPGKGPEWVSVIYSDGRRMFSGDSVKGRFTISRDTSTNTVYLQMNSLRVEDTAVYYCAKGRAFGTFDSWGQGTLVTVSS, the assay gave 2.9 µM (1 of 3 replicates).
For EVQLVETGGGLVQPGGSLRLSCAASGFTENSYGISWVRQAPGKGPEWVSVIYSDGRRTFCGDCVKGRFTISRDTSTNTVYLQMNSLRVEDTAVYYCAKGRAAGTFDSWGQGTLVTVSS, the assay gave 58 µM (3 of 3 replicates).
For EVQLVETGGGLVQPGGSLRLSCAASGFTLNSYGISWVRQAPGKGPEWVSVIYSDGRRPFNGASVKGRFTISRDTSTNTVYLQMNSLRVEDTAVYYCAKGRAAGTFDSWGQGTLVTVSS, the assay gave nd (0 of 3 replicates).
For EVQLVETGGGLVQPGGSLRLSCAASGFTLNSYGISWVRQAPGKGPEWVSVIYSDGRRTFAGDSVKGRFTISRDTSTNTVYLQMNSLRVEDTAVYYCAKGRAAGTFDSWGQGTLVTVSS, the assay gave 3.1 µM (3 of 3 replicates).

2 of these entries, quoted again:

Variant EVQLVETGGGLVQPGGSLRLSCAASGFTLNSYGISWVRQAPGKGPEWVSVIYSDGRRTCFGDSNKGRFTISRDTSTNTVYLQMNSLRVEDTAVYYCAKGRAAGTFDSWGQGTLVTVSS showed nd (0 of 3 replicates).
Variant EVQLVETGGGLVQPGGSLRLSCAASGFTLNSYGISWVRQAPGKGPEWVSVIYSDGRRTFAGDSVKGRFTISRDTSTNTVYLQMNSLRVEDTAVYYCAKGRAAGTFDSWGQGTLVTVSS showed 3.1 µM (3 of 3 replicates).